We go through one molecule from ChEMBL document CHEMBL5715953, “A Potent, Selective, and Cell-Active Inhibitor of Human Type I Protein Arginine Methyltransferases” (ACS Chem Biol, 2016).

By UniProt entry, the sequences of proteins in these tests, tags left out. Where a name states a change or a piece, a line headed by the entry shows the natural chain unless it says otherwise.
UniProt O60678: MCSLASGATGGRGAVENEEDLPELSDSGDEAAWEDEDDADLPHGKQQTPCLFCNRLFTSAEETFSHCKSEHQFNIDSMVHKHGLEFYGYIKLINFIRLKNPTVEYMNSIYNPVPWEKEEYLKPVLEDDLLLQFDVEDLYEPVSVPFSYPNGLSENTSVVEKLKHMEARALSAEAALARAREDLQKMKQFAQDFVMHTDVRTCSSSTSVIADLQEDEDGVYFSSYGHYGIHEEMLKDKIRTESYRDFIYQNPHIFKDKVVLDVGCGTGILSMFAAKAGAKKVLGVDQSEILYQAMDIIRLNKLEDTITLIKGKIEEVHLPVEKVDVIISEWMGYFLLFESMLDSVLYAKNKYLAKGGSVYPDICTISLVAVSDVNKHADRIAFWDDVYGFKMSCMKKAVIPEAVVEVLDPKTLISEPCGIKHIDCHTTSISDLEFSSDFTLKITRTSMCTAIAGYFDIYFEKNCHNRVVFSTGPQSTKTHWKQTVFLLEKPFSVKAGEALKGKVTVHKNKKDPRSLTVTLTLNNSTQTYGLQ
UniProt Q99873, whole entry: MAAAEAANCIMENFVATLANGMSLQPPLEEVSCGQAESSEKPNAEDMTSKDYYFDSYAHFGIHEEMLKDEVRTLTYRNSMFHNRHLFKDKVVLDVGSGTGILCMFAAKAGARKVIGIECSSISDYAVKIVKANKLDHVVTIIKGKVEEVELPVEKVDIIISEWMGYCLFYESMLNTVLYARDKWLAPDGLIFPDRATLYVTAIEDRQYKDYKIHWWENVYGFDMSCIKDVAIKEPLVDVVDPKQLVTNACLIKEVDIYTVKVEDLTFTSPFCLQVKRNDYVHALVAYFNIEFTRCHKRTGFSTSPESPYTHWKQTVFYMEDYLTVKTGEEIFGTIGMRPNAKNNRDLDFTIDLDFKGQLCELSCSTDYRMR

In experiment [1] the target is T1, Histone-arginine methyltransferase CARM1 (Homo sapiens, UniProt Q86X55).
T1 sequence (Q86X55 whole entry): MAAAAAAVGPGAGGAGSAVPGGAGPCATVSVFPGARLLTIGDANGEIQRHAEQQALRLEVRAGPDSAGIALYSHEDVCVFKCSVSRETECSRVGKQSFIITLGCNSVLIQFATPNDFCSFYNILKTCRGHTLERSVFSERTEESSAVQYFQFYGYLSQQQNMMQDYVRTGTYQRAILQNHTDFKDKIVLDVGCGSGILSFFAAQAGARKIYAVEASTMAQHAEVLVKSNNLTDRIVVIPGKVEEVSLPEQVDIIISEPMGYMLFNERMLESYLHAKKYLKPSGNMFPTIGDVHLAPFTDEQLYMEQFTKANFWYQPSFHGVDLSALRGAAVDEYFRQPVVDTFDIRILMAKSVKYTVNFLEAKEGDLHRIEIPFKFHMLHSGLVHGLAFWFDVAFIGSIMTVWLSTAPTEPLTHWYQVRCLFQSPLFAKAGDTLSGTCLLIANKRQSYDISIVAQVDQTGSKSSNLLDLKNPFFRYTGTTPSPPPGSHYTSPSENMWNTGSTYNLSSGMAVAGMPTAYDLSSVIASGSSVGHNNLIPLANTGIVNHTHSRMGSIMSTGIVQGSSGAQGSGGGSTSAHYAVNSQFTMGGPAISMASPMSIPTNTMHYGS

The target in experiment [2] is T1, Histone-arginine methyltransferase CARM1. Put plainly: Inhibition of human PRMT4 using (3H) methylated biotin labelled peptide as substrate in presence of 3H-SAM by scintillation proximity assay.
Experiment [3] concerns the target T2, Protein arginine N-methyltransferase 3 (Homo sapiens, UniProt O60678).
Experiment [4] addresses T3, Protein arginine N-methyltransferase 1 (Homo sapiens, UniProt Q99873). Put plainly: Binding affinity to human PRMT1 assessed as inhibition constant using (3H) methylated biotin labelled peptide as substrate in presence of 3H-SAM by scintillation proximity assay. For orientation: SPA uses beads or plates that emit light when radiolabelled molecules are held near them.

In experiment [5] the target is T3, Protein arginine N-methyltransferase 1. Put plainly: Inhibition of human PRMT1 using (3H) methylated biotin labelled peptide as substrate in presence of 3H-SAM by scintillation proximity assay.
The target of experiment [6] is T2, Protein arginine N-methyltransferase 3. Put plainly: Inhibition of human PRMT3 using (3H) methylated biotin labelled peptide as substrate in presence of 3H-SAM by scintillation proximity assay.

Usually Ki stands for a dissociation constant, usually derived from enzyme kinetics or from competition with a known ligand. What is called IC50 is the concentration at which inhibition is half-maximal.

Regarding `CN(CCN)Cc1c[nH]cc1-c1cccc(C(F)(F)F)c1`, the results for the Ki in experiment [1], in experiment [3] and in experiment [4] were 0.12 µM, 0.55 µM and 0.12 µM, respectively. Also, the IC50 was determined as 0.26 µM in experiment [2], 0.25 µM in experiment [5] and 1.1 µM in experiment [6].
